# Laboratory results taken from paper PMC7337497 (The Journal of Cell Biology, 2020).
# Target: the molecule itself
# Assay: SEC-MALS; static light scattering: 90 µl of 10 µM (1.5 mg/ml) ATG12–ATG5-ATG16L1-GFP on Superose 6 Increase 10/300 GL coupled to a TREOS II instrument; 25 mM Hepes pH 7.5, 300 mM NaCl, 1 mM DTT; dimer of the three-subunit complex
protein,measurement,value
"ATG12–ATG5-ATG16L1-GFP complex (E3-GFP) (complex, human, conjugated to a lysine residue in ATG5 (ATG12–ATG5 conjugate) | a lysine residue conjugated to ATG12, ATG12, human; synthetic gene codon optimised for Sf9; conjugated to ATG5 by coexpressed ATG7 and ATG10; ATG5, human; ATG16L1 isoform β, human; Dimer with two copies of each subunit by static light scattering; no TEV cleavage is described for this complex; also called GFP-tagged E3; E3 complex; source: Sf9, coexpressed from one poly-cistronic construct with ATG7 and ATG10, purified (StrepTactin, …)) chain 1: MAEEPQSVLQLPTSIAAGGEGLTDVSPETTTPEPPSSAAVSPGTEEPAGDTKKKIDILLKAVGDTPIMKTKKWAVERTRTIQGLIDFIKKFLKLVASEQLFIYVNQSFAPSPDQEVGTLYECFGSDGKLVLHYCKSQAWG chain 2: MTDDKDVLRDVWFGRIPTCFTLYQDEITEREAEPYYLLLPRVSYLTLVTDKVKKHFQKVMRQEDISEIWFEYEGTPLKWHYPIGLLFDLLASSSALPWNITVHFKSFPEKDLLHCPSKDAIEAHFMSCMKEADALKHKSQVINEMQKKDHKQLWMGLQNDRFDQFWAINRKLMEYPAEENGFRYIPFRIYQTTTERPFIQKLFRPVAADGQLHTLGDLLKEVCPSAIDPEDGEKKNQVMIHGIEPMLETPLQWLSEHLSYPDNFLHISIIPQPTD chain 3: MSSGLRAADFPRWKRHISEQLRRRDRLQRQAFEEIILQYNKLLEKSDLHSVLAQKLQAEKHDVPNRHEISPGHDGTWNDNQLQEMAQLRIKHQEELTELHKKRGELAQLVIDLNNQMQRKDREMQMNEAKIAECLQTISDLETECLDLRTKLCDLERANQTLKDEYDALQITFTALEGKLRKTTEENQELVTRWMAEKAQEANRLNAENEKDSRRRQARLQKELAEAAKEPLPVEQDDDIEVIVDETSDHTEETSPVRAISRAATKRLSQPAGGLLDSITNIFGRRSVSSFPVPQDNVDTHPGSGKEVRVPATALCVFDAHDGEVNAVQFSPGSRLLATGGMDRRVKLWEVFGEKCEFKGSLSGSNAGITSIEFDSAGSYLLAASNDFASRIWTVDDYRLRHTLTGHSGKVLSAKFLLDNARIVSGSHDRTLKLWDLRSKVCIKTVFAGSSCNDIVCTEQCVMSGHFDKKIRFWDIRSESIVREMELLGKITALDLNPERTELLSCSRDDLLKVIDLRTNAIKQTFSAPGFKCGSDWTRVVFSPDGSYVAAGSAEGSLYIWSVLTGKVEKVLSKQHSSSINAVAWSPSGSHVVSVDKGCKAVLWAQY",stoichiometry N,2
